Laboratory results reported in US5399487A, “6-peptidylamino-1-naphthalenesulfonamides useful as fluorogenic proteolytic enzyme substrates” (Haematologic Technologies, Inc., priority 1993, dated 1995).

Protein sequences, listed by entry. Tags and fused reporters are not part of them. Residues count along the entry.
UniProt P04070, 43-197 limits assumed: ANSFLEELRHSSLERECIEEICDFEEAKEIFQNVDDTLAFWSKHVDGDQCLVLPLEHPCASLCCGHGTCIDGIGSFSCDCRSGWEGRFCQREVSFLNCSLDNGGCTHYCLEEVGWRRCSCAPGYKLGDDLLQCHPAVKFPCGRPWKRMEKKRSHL
UniProt P04070, 212-461 limits assumed: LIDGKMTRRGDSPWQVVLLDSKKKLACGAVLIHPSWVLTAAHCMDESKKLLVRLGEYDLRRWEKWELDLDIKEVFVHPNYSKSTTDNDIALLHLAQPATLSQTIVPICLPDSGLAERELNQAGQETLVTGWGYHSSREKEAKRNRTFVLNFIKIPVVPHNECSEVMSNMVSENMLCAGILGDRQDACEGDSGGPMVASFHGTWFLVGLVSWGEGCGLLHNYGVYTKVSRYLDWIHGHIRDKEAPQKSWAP
UniProt P00742, 41-179 limits assumed: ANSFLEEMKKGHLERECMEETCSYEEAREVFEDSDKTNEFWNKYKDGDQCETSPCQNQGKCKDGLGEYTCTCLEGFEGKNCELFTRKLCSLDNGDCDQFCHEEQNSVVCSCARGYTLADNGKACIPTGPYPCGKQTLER
UniProt P00742, 235-488 limits assumed: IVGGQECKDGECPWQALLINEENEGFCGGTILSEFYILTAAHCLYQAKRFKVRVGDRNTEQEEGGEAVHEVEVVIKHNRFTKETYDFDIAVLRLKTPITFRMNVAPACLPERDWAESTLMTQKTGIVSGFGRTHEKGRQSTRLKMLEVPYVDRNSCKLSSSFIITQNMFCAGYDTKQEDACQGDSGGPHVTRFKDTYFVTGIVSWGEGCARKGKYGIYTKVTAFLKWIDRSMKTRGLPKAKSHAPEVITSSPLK
UniProt P00747, 97-580 limits assumed: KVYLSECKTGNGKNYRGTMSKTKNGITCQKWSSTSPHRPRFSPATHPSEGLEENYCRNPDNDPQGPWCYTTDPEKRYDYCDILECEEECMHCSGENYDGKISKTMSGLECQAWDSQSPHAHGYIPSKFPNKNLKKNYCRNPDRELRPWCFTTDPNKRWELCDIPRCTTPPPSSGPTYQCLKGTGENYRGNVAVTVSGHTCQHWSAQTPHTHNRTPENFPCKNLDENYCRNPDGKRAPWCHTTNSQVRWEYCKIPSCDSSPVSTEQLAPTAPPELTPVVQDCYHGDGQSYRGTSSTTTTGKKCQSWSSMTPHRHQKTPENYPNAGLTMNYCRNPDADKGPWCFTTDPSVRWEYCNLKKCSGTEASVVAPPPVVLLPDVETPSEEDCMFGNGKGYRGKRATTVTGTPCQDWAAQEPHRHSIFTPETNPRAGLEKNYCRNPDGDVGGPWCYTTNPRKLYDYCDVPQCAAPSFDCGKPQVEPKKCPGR
UniProt P00747, 581-810 limits assumed: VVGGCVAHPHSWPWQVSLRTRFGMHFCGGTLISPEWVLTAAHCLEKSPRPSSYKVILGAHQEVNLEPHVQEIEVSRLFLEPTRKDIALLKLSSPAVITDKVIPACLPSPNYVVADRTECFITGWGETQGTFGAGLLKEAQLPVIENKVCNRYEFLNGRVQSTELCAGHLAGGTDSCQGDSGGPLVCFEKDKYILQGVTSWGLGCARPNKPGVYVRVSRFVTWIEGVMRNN
UniProt P00750, 36-562 limits assumed: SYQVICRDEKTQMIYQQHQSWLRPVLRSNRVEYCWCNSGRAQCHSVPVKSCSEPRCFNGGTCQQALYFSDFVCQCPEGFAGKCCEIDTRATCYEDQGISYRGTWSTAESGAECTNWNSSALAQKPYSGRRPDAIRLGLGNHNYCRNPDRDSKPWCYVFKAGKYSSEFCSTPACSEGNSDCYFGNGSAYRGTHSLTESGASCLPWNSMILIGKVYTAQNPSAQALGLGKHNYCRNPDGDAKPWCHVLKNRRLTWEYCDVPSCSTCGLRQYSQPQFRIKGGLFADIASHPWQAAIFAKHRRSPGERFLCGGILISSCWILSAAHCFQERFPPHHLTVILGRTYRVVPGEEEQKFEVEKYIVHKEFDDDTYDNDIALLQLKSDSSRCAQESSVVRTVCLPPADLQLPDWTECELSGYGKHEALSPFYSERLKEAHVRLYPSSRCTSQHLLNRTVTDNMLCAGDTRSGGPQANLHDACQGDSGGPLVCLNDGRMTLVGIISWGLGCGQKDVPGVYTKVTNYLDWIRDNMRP

What was measured:
Assay in all cases: Fluorogenic enzyme assay (Example 5)
[1] = biological target: activated protein C (APC) (Homo sapiens, UniProt P04070); conditions: tested form: HBr; for Time (min) for 10% hydrolysis, APC: enzyme 100 nM, substrate 1 μM
Method: (§1) Enzyme assays (except factor VIIa assays, see below) were conducted in 20 mM Tris, 150 mM NaCl, pH 7.4 (TBS) at room temperature (22° C.). The final volume for all reaction mixtures was 2.0 ml. Fluorogenic substrates were dissolved in DMSO to a stock concentration of 10 mM. The 10 mM stock solution was diluted in TBS to the final working concentration prior to all assays. Enzyme was added to mixtures containing buffer components and substrate and the initial rate of substrate hydrolysis was measured as the change in fluorescent intensity over time, corresponding to the generation of the particular 6-amino-1-naphthalenesulfonamide fluorophore from the provided substrate. Quantitation of substrate hydrolysis was accomplished by establishing a standard curve from the appropriate fluorescent moiety. Fluorescence was monitored (continuously or discontinuously) using a Perkin Elmer fluorescence spectrophotometer, model MPF-44A, equipped with a standard chart recorder. The fluorophore was detected using monochrometers set at an excitation wavelength of 352 nm and an emission wavelength of 470 nm. Light scattering artifacts were minimized using a 399 nm cut off filter in the emission light beam.
(§2) The kinetic constants of substrate hydrolysis were determined using the non-linear least squares regression analysis program ENZFITTER (Cambridge, UK). This program was used to iteratively fit initial rates of substrate hydrolysis to the Michaelis-Menten equation and the kinetic constants of substrate hydrolysis (Km) and (kcat) were calculated.

factor Xa = factor Xa (Homo sapiens, UniProt P00742); conditions: tested form: HBr; for kcat /Km, Xa / kcat, Xa / Km: Table 7; for Time (min) for 10% hydrolysis, Xa: enzyme 100 nM, substrate 1 μM; for Km: read-out: Km, Xa
Method: as §1, §2

plasmin (Plm) = plasmin (Plm) (Homo sapiens, UniProt P00747); conditions: enzyme 100 nM, substrate 1 μM, tested form: HBr
Method: as §1, §2

thrombin (IIa) = thrombin (IIa) (Homo sapiens, UniProt P00734); conditions: tested form: HBr; for Time (min) for 10% hydrolysis, IIa: enzyme 100 nM, substrate 1 μM; for Km: read-out: Km, IIa
Method: as §1, §2

[2] = biological target: tissue plasminogen activator (t-PA) (Homo sapiens, UniProt P00750); conditions: enzyme 100 nM, substrate 1 μM, tested form: HBr; for Time (min) for 5% hydrolysis, t-PA: footnote b
Method: as §1, §2

urokinase (u-PA) = urokinase (u-PA) (Homo sapiens, UniProt P00749); conditions: enzyme 100 nM, substrate 1 μM, tested form: HBr
Method: as §1, §2

Row | SMILES | Hydrolysis kinetic constants, APC (symbol b) ([1]; Table 7) | Time (min) for 10% hydrolysis, APC [1] [min] | kcat /Km, Xa (factor Xa) [M⁻¹ s⁻¹] | kcat, Xa (factor Xa) [s⁻¹] | Time (min) for 10% hydrolysis, Xa (factor Xa) [min] | Km (factor Xa) [µM] | Time (min) for 10% hydrolysis, Plm (plasmin (Plm)) [min] | Hydrolysis kinetic constants, IIa (symbol b) (thrombin (IIa); Table 7) | Time (min) for 10% hydrolysis, IIa (thrombin (IIa)) [min] | hydrolysis, t-PA (symbol N.D.) ([2]; after 24 hrs) | hydrolysis, u-PA (symbol N.D.) (urokinase (u-PA); after 24 hrs) | hydrolysis, Plm (symbol N.D.) (plasmin (Plm); after 24 hrs) | kcat /Km, IIa (thrombin (IIa); Table 7) [M⁻¹ s⁻¹] | kcat, IIa (thrombin (IIa); Table 7) [s⁻¹] | Km (thrombin (IIa); Table 7) [µM] | Time (min) for 5% hydrolysis, t-PA [2] [min] | Time (min) for 10% hydrolysis, u-PA (urokinase (u-PA)) [min] | kcat /Km, APC ([1]; Table 7) [M⁻¹ s⁻¹] | kcat, APC ([1]; Table 7) [s⁻¹] | Km ([1]; read-out: Km, APC, Table 7) [µM]
1 | N=C(N)NCCC[C@H](NC(=O)OCc1ccccc1)C(=O)Nc1ccc2c(S(=O)(=O)N3CCCCC3)cccc2c1 | b | 360 | 924 | 0.06 | 41 | 64.9 | 1220 | b | 90 | N.D. (Less than 5% hydrolysis after 24 hrs.) | N.D. (Less than 5% hydrolysis after 24 hrs.) |  |  |  |  |  |  |  |  | 
2 | CCNS(=O)(=O)c1cccc2cc(NC(=O)[C@H](CCCNC(=N)N)NC(=O)OCc3ccccc3)ccc12 | b | 34 | 636 | 0.08 | 25 | 121 |  |  | 30 |  |  | N.D. (Less than 5% hydrolysis after 24 hrs.) | 820 | 0.14 | 171 | 1140 | 270 |  |  | 
3 | CCCCNS(=O)(=O)c1cccc2cc(NC(=O)[C@H](CCCNC(=N)N)NC(=O)OCc3ccccc3)ccc12 |  | 8 | 576 | 0.08 | 34 | 139 | 540 |  | 17 |  |  |  | 1260 | 0.04 | 32.4 | 720 | 28 | 3600 | 0.62 | 171
